## Ab-14 heavy chain CDR variants: yeast mating affinities

All variants were tested on one target, the spike HR2 peptide PDVDLGDISGINAS (SARS-CoV-2).

Parent: Ab-14, a human scFv built as VH, three GGGGS repeats, VL. Only the CDRs of the heavy chain vary.
VH: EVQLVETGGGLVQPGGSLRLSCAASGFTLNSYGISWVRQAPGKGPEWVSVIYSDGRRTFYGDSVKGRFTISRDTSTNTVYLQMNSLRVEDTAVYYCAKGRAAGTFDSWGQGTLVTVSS
VL: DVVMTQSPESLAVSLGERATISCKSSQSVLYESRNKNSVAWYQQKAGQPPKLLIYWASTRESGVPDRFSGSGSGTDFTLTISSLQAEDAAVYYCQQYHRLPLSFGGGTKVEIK

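The variants were designed computationally from a first round of random CDR variants and then made and measured. Several design methods are mixed in this list. In AlphaSeq, yeast of one mating type display the scFv and yeast of the other type display the target. Mating (16 h, 30 °C) was followed by selection of diploids and sequencing of their barcodes. Scores were corrected for input abundance and mapped to Kd with protein pairs of known affinity run in the same pool. Mating was done six times.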

Each variant's VH is given in full. The read-out is the apparent dissociation constant on a log10 scale (nM): the lower, the stronger. The mean shown is taken over the replicates in which the pair was detected. "not detected" marks a missing value. The strain was present, yet no cells mated with the target were sequenced in any replicate, which points to weak or no binding. In the paper, a design with two or fewer of six values counts as a poor binder.

VH	mean, log10 nM	seen in	empty controls
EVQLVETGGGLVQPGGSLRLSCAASKFTLNSYGISWVRQAPGKGPEWVSVIYSDGRRTFYIDSVKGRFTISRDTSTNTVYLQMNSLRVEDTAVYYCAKGRCAGIFDSWGQGTLVTVSS	not detected	0 of 6	0 of 18
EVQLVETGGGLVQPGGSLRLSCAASGFNLDEYGISWVRQAPGKGPEWVSVIYADGYRRMYIDAVKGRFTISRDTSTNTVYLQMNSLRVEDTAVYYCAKGMNSGFGGTWGQGTLVTVSS	not detected	0 of 6	0 of 18
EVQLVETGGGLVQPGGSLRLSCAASGFDLNEYGISWVRQAPGKGPEWVSVIYADGMRTSYIDSVKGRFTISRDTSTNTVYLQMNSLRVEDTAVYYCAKGENAGTFDVWGQGTLVTVSS	-0.33	6 of 6	0 of 18
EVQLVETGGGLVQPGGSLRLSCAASGFALTEYGISWVRQAPGKGPEWVSVIYADGRRTAYSQSVKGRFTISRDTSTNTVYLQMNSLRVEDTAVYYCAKGLNGGIIDVWGQGTLVTVSS	not detected	0 of 6	1 of 18
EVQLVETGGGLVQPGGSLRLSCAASGFTLNEYGISWVRQAPGKGPEWVSVIYADGRRTFYGDSVKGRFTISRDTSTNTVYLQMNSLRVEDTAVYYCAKGRAAGTFVSWGQGTLVTVSS	1.03	1 of 6	0 of 18
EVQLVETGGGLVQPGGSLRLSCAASGFDLNEYGISWVRQAPGKGPEWVSVIYADGKRTAYSDSVKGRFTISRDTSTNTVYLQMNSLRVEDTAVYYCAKGEAAGTFDLWGQGTLVTVSS	-0.32	6 of 6	0 of 18
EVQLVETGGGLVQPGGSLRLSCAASGFDLNEYGISWVRQAPGKGPEWVSVIYADGMRTYYADSVKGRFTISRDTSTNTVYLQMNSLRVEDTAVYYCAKGNVAGTFDAWGQGTLVTVSS	-0.95	6 of 6	0 of 18
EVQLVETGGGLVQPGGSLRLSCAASGFTLNSYGISWVRQAPGKGPEWVSVIYADGRRTFYMDSVKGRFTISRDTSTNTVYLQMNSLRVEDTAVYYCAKGRAGGTFSKWGQGTLVTVSS	not detected	0 of 6	0 of 18
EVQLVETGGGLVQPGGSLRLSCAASHFSLNSYGISWVRQAPGKGPEWVSVIYSDGRRTFYADSVKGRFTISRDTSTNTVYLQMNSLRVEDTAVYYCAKGKAAGTFDSWGQGTLVTVSS	1.19	6 of 6	0 of 18
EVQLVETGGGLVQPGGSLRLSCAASGFTLDSYGISWVRQAPGKGPEWVSVIYHDGRRTFYADSVKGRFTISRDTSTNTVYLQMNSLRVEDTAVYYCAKGRAAGTNDSWGQGTLVTVSS	not detected	0 of 6	0 of 18
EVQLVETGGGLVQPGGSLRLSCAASGFTLNQYGIDWVRQAPGKGPEWVSVDYSDGRRTFYSDSVKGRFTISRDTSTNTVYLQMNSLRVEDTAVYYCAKGRAAGFFDSWGQGTLVTVSS	not detected	0 of 6	0 of 18
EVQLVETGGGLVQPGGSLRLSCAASGFSLNSYGISWVRQAPGKGPEWVSVIYSDGRRTFYSDSVKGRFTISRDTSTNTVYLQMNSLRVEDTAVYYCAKGKTAGTFDSWGQGTLVTVSS	-0.48	6 of 6	0 of 18
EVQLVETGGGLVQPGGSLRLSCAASGFDLDEYGISWVRQAPGKGPEWVSVIYADGSRTAYADSVKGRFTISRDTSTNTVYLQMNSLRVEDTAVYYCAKGSNAGTFDVWGQGTLVTVSS	not detected	0 of 6	0 of 18
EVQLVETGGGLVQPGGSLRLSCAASGFDLNEYGISWVRQAPGKGPEWVSVIYADGMRTFYTDDVKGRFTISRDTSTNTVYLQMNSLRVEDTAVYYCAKGEVAGTFDMWGQGTLVTVSS	-0.07	6 of 6	0 of 18
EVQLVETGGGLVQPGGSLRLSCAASGFDLNEYGISWVRQAPGKGPEWVSVIYADGMRTAYTDSVKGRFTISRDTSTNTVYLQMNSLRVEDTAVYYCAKGANAGTFDQWGQGTLVTVSS	0.31	6 of 6	0 of 18
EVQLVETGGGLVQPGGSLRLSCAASTFTLESYGISWVRQAPGKGPEWVSVIYADGRRTFYGDSVKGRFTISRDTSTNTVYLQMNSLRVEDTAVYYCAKGRAAGTFDSWGQGTLVTVSS	1.19	5 of 6	0 of 18
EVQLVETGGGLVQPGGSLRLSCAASGFTLNEYGISWVRQAPGKGPEWVSVIYSDGRRTMYSDSVKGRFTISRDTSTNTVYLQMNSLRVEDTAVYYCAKGRAPGTFDSWGQGTLVTVSS	1.15	3 of 6	1 of 18
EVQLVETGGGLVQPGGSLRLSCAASGFHLNSYGISWVRQAPGKGPEWVSVIYSDGLRTFYGDNVKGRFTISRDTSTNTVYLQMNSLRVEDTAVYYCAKGRAAGTKDSWGQGTLVTVSS	2.59	4 of 6	0 of 18
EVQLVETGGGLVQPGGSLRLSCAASGFELNSYGISWVRQAPGKGPEWVSVIYSDGRRTFYGDSVKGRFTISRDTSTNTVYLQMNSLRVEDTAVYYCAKGKTAGTFDEWGQGTLVTVSS	0.81	6 of 6	0 of 18
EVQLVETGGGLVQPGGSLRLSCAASGFTLNSYGISWVRQAPGKGPEWVSVIYSDGQRTFYGDSVKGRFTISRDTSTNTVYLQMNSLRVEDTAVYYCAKGRAYGTFDWWGQGTLVTVSS	2.37	5 of 6	1 of 18
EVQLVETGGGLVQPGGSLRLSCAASGFDLDEYGISWVRQAPGKGPEWVSVIYADGRRTAYSDSVKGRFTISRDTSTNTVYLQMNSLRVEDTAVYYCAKGETAGTFDLWGQGTLVTVSS	-0.39	6 of 6	0 of 18
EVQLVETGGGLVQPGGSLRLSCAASGFTLNEYGISWVRQAPGKGPEWVSVIYSDGRRTFYGDSVKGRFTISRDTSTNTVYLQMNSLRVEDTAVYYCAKGRTAGTFIFWGQGTLVTVSS	not detected	0 of 6	0 of 18
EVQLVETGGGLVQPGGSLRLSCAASGFDLNEYGISWVRQAPGKGPEWVSVIYADGRRTFYADSVKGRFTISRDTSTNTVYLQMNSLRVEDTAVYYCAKGEAAGTFFMWGQGTLVTVSS	1.83	5 of 6	1 of 18
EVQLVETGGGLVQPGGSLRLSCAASGFTLNQYGISWVRQAPGKGPEWVSVIYSDGRRTFYSDSVKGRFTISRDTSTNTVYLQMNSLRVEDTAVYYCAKGTAAGTFDSWGQGTLVTVSS	-0.16	6 of 6	0 of 18

Excerpt, the final 3 entries:

| VH | mean, log10 nM | seen in | empty controls |
|---|---|---|---|
| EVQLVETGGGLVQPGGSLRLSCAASGFTLNEYGISWVRQAPGKGPEWVSVIYSDGRRTFYGDSVKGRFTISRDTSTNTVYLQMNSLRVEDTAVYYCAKGRTAGTFIFWGQGTLVTVSS | not detected | 0 of 6 | 0 of 18 |
| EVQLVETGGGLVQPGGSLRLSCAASGFDLNEYGISWVRQAPGKGPEWVSVIYADGRRTFYADSVKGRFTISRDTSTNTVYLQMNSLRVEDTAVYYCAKGEAAGTFFMWGQGTLVTVSS | 1.83 | 5 of 6 | 1 of 18 |
| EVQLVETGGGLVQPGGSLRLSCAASGFTLNQYGISWVRQAPGKGPEWVSVIYSDGRRTFYSDSVKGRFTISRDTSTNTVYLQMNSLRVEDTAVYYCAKGTAAGTFDSWGQGTLVTVSS | -0.16 | 6 of 6 | 0 of 18 |

The range of this assay differs from that of the first round, and the authors advise against merging the two. Of ten entries with the parent sequence, four were seen in most replicates (averages 0.34 to 2.37), three in one and three in none, so single entries are noisy. Nonspecific signal, from three strains lacking the peptide, appeared in 1% of pairings of all heavy chain designs, centred on 2.08 (5% of these signals below 0.84); values are not corrected for it. The control count says in how many pairings with the empty strains this scFv gave a signal.

Values reported by Li et al. 2023, doi:10.1038/s41467-023-39022-2 (FLAb copy).